Where a SMILES comes first, the peptide text is derived from it.
Assays:
[1] = target: T1, plasmin originating from swine blood (Sus scrofa, UniProt P06867); assay: Stabilizing effect of amino acids on plasmin solution, residual plasmin activity (casein) on storage; format: biochemical; conditions: about 0.4 plasmin unit per ml, phosphate buffer pH 7.5, 0.25 millimole amino acid per plasmin unit (or saturated), % of initial activity; for % activity after 120 minutes at 35.5°C: without amino acid 43; for % activity after 60 minutes at 35.5°C: without amino acid 55
T1 construct: from tissue; host or cells: swine blood

Sequences of proteins named here, by UniProt entry; tags and fusion partners are left off. Residues count along the entry.
UniProt P06867, 97-579 limits assumed: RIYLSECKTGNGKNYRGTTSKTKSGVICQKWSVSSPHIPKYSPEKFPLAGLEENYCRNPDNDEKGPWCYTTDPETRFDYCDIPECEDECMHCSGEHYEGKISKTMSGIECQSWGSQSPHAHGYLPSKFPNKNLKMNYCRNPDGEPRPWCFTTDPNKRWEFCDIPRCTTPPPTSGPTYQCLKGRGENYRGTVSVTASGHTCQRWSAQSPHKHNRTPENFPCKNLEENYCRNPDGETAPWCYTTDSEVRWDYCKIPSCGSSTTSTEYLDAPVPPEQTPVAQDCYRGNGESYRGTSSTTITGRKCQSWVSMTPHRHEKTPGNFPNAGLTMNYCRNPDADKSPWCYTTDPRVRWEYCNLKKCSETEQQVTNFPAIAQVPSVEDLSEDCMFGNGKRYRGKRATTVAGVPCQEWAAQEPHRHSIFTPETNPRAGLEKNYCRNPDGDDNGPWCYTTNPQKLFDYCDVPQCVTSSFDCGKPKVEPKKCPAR
UniProt P06867, 580-809 limits assumed: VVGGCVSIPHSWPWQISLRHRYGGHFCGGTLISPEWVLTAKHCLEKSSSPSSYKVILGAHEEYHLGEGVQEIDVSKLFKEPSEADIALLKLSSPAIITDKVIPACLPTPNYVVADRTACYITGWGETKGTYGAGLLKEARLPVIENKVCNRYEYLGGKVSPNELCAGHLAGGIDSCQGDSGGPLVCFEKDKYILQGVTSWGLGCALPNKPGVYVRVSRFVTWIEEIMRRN
UniProt P00747, 97-580: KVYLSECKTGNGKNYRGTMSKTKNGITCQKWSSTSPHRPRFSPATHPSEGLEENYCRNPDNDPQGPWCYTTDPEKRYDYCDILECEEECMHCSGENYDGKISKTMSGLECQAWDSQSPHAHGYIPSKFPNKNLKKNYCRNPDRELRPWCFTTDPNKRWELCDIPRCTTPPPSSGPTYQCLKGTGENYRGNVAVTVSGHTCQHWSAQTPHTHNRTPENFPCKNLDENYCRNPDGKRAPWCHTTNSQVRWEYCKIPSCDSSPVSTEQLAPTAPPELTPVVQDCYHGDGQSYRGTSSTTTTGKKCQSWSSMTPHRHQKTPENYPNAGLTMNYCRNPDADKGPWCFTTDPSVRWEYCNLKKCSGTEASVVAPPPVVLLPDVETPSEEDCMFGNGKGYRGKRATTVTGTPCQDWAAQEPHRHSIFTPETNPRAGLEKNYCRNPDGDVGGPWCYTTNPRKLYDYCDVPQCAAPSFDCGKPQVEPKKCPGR
UniProt P00747, 581-810: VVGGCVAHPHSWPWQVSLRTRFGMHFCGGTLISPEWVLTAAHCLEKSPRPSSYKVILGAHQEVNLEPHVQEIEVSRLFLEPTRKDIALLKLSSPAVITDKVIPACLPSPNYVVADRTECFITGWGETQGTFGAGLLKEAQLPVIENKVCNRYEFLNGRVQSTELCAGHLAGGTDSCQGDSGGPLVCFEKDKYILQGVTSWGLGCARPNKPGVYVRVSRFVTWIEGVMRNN
UniProt P06868, 584-812 limits assumed: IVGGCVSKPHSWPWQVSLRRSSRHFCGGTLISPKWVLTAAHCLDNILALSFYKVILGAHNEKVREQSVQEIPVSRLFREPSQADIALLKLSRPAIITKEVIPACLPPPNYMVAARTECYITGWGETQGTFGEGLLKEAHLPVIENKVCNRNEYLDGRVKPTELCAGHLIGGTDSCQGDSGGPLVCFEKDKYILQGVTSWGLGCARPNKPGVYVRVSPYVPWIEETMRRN
UniProt P06868, 104-583 limits assumed: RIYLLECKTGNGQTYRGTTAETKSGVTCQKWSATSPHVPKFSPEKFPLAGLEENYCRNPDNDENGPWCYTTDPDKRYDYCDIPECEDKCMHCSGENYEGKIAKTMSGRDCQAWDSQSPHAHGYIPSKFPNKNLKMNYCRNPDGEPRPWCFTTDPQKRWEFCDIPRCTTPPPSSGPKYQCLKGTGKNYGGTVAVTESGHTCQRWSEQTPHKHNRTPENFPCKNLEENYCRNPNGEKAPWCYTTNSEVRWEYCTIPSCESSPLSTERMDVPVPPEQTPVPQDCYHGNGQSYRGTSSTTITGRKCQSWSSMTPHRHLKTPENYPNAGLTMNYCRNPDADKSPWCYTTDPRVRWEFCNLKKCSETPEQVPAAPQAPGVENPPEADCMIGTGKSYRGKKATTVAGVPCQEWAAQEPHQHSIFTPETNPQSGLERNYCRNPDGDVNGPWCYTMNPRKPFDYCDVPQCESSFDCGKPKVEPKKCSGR

[2] = target: T2, plasmin originating from human blood (Homo sapiens, UniProt P00747); assay: Stabilizing effect of amino acids on plasmin solution from human blood; format: biochemical; conditions: 0.25 millimole amino acid per plasmin unit; for % activity after 60 min. at 35.5°C: without amino acid 55
T2 construct: from tissue; host or cells: human blood

[3] = target: T3, plasmin originating from ox blood (Bos taurus, UniProt P06868); assay: Stabilizing effect of amino acids on plasmin solution from ox blood; format: biochemical; conditions: 0.25 millimole amino acid per plasmin unit; for % activity after 60 min. at 35.5°C: without amino acid 60
T3 construct: from tissue; host or cells: ox blood

plasmin = plasmin (Sus scrofa, UniProt P06867); assay: Activity of plasmin solution with varying amounts of L-lysine stored at 35.5°C and 25°C; format: biochemical, swine
[4] = 0.031 millimole L-lysine per plasmin unit, 0.4 plasmin units per ml

Row | Compound | % activity after 120 minutes at 35.5°C [1] [%] | % activity after 60 minutes at 35.5°C [1] [%] | further results
1 | CC(C)C(N)C(=O)O (racemic) [DL-valine] | 49 | 60 | –
2 | Nc1ccccc1C(=O)O [o-amino benzoic acid] | 68 | 79 | –
3 | N[C@@H](Cc1c[nH]cn1)C(=O)O [L-histidine] | 61 | 64 | –
4 | NCCCCCC(=O)O [ε-amino caproic acid] | 80 | 85 | % activity after 120 min. at 35.5°C ([2]; without amino acid 32): 96%; % activity after 60 min. at 35.5°C [2]: 94%; % activity after 120 min. at 35.5°C ([3]; without amino acid 45): 99%; % activity after 60 min. at 35.5°C [3]: 100%
5 | CN(CC(=O)O)C(=N)N [Creatine] | 60 | 81 | –
6 | NC(Cc1ccccc1)C(=O)O (racemic) [DL-phenyl analine] | 55 | 73 | –
7 | N=C(N)NCCC[C@H](N)C(=O)O [L-arginine] | – | 78 | % activity after 60 min. at 35.5°C [3]: 86%
8 | NC(Cc1c[nH]c2ccccc12)C(=O)O (racemic) [DL-thrypthophane] | 48 | 60 | –
9 | NCCCC(=O)O [γ-amino butyric acid] | – | 97 | –
10 | N[C@@H](CC(=O)O)C(=O)O [L(+)-aspartic acid] | 51 | 60 | –
11 | O=C(O)[C@@H]1C[C@@H](O)CN1 [L(-)-hydroxyproline] | 66 | 69 | –
12 | Nc1cccc(C(=O)O)c1 [m-amino benzoic acid] | 52 | 73 | –
13 | CC(C)CC(N)C(=O)O (racemic) [DL-leucine] | 53 | 72 | –
14 | CCCCC(N)C(=O)O (racemic) [DL-norleucine] | 59 | 72 | –
15 | NCCCC[C@H](N)C(=O)O [L-lysine] | – | – | % activity after 60 min. at 35.5°C [2]: 87%; % activity after 60 min. at 35.5°C (plasmin; [4]): 74%; % activity after 120 min. at 35.5°C (plasmin; [4]): 52%; % activity after 120 min. at 35.5°C (plasmin; 0.062 millimole L-lysine per plasmin unit, 0.4 plasmin units per ml): 73%; % activity after 60 min. at 35.5°C (plasmin; 0.25 millimole L-lysine per plasmin unit, 0.4 plasmin units per ml (Table VI)): 100%; % activity after 60 min. at 35.5°C [3]: 85%
16 | Nc1ccc(C(=O)O)cc1 [p-amino benzoic acid] | 63 | 77 | –
17 | CC[C@H](C)[C@H](N)C(=O)O (racemic) [DL-isoleucine] | 57 | 77 | –
18 | N=C(N)NCC(=O)O [Guanidino acetic acid] | 68 | 80 | –
19 | NC(=O)NCCC[C@H](N)C(=O)O [L(+)-citrulline] | 54 | 64 | –
20 | CC(=O)N[C@@H](CCCNC(=N)N)C(=O)O [α-N-acetyl-L-arginine] | 87 | 92 | –
21 | NCC(=O)NCC(=O)O [Glycyl glycine] (H-Gly-Gly-OH) | 77 | 88 | –

— patent US3950513A, “Process of stabilizing therapeutically useful plasmin solutions” (Novo Terapeutisk Laboratorium A/S, priority 1969, dated 1976)
